The test has as its system HT1080 cells. The experiment in a line: HT1080 cellular assay, 2-HG by LC-MS (IDH1 R132C). It is filed as cell-based. The conditions noted are these: Homo sapiens, HT-1080. Here is the method:
The following describes the experimental procedures that can be used to obtain data on column 5 of Table 4.
Cells (HT1080 or U87MG) are grown in T125 flasks in DMEM containing 10% FBS, 1× penicillin/streptomycin and 500 ug/mL G418 (present in U87MG cells only). They are harvested by trypsin and seeded into 96 well white bottom plates at a density of 5000 cell/well in 100 ul/well in DMEM with 10% FBS. No cells are placed in columns 1 and 12. Cells are incubated overnight at 37° C. in 5% CO2. The next day test compounds are made up at 2× the final concentration and 100 ul are added to each cell well. The final concentration of DMSO is 0.2% and the DMSO control wells are plated in row G. The plates are then placed in the incubator for 48 hours. At 48 hours, 100 ul of media is removed from each well and analyzed by LC-MS for 2-HG concentrations. The cell plate is placed back in the incubator for another 24 hours. At 72 hours post compound addition, 10 mL/plate of Promega Cell Titer Glo reagent is thawed and mixed. The cell plate is removed from the incubator and allowed to equilibrate to room temperature. Then 100 ul of Promega Cell Titer Glo reagent is added to each well of media. The cell plate is then placed on an orbital shaker for 10 minutes and then allowed to sit at room temperature for 20 minutes. The plate is then read for luminescence with an integration time of 500 ms. […]

`C[C@@H](Nc1cc(N[C@H](C)C2CC2)nc(-c2cccc(C(F)(F)F)n2)n1)C1CC1` [Compound 414] displayed a half-maximal inhibitory concentration (IC50) of 100 to 1000 nM.

A word on the IC50: it is the concentration that gives 50% inhibition. Read a high IC50 as a need for much substance.

The values above are taken from patent publication US10946023B2, “Therapeutically active compounds and their methods of use” (Agios Pharmaceuticals, Inc., priority 2013, dated 2021).
